Assay outcomes: PubChem, National Center for Advancing Translational Sciences (NCATS)
The list is not random: actives were taken first. Their share in the collection is about 3.7%.
ClpP mod: qHTS Assay for Activators of ClpP; purified B. subtilis ClpP, FRET peptide cleavage, 20 min; AID 651965, 2013; 1.9% of 340,000 active; Potency, µM (series often up to 57.5 µM), for the others: at the highest dose activity change, negative = active; active means well fitted falling curve with a large enough effect; inconclusive means small, poorly fitted or top-dose-only effect; inactive means no such curve, though single readings can be large or run the other way; further: potency means the concentration at half of the fitted maximal effect; the source files actives as falling curves though it sought activators and does not explain the sign; nearly all actives have a fitted effect of over 65% in size
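Purified B. subtilis ClpP, 10 microg/mL final in Tris/HCl pH8 with KCl, BSA, glycerol and Tween-20, cleaved an Abz/nitrotyrosine-quenched decapeptide. Fluorescence (ex 320, em 430) was read at 0 and 20 min at room temperature. Delta was normalized to 5.8 microM ADEP and DMSO/no-enzyme controls.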
IL2 activator: IL-2 activation; IL-2 activation reporter assay, cell-based qHTS; stimulated with anti-CD3/CD4/CD28 beads; in transgenic mouse T cells; 0.065% of 360,000 active; activation, % (series mostly up to about 46 µM); AID 652025; in the data active means activation above about 50%; inconclusive means mostly about 30% to 49%; further: 0% is about no effect
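Unstimulated transgenic mouse T cells, 750 per well, received compound and, after 60 minutes, anti-CD3/anti-CD4 bead plus anti-CD28 stimulation. EGFP and DsRed were quantified after 18 hours.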
Nrf2 block: blocks Nrf2 signaling; A549 ARE-Fluc reporter, luciferase luminescence, 18-24 h; Potency, µM (series often up to 46 µM), for inactives: at the top dose activity change, negative = inhibition, actives largely listed as inhibitors; 2.1% of 360,000 active; AID 504444; further: potency means the concentration at half of the fitted maximal effect; on the % scale 0 is the no-effect control and ±100 the full control effect; nearly all actives have a fitted effect of over 60% in size
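Reporter: ARE-Fluc in A549. Exposure: 18-24 h, 37 °C, 5% CO2, 5% FBS OPTI-MEM. Readouts: fluorescent cytotoxicity (CellTiter-Fluor), then luminescent Nrf2 signal after BugLite.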
Nrf2 activator: activators of Nrf2 (ARE) signaling | AREc32 ARE-luciferase reporter (MCF7-derived line), luminescence, 24 h | Potency, µM (top dose mostly 46.1 µM), for inactives: top-dose activation, usual class: activators | 0.31% of 410,000 active; further: potency means the concentration at half of the fitted maximal effect; % of control where 0% means no effect; nearly all actives have a fitted effect of over 65% in size
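Cells of the AREc32 ARE-luciferase line are plated in OPTI-MEM containing 5% FBS and left overnight at 37 deg C. Compounds are pinned in, incubation continues 24 hr, and firefly luciferase signal is then measured.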
miR-21 reporter: miR-21 reporter, rising signal | AID 2288 | HeLa miR-21 FLuc reporter, luciferase, 48 h | 340,000 tested, under 10 active | Potency, µM (titrated, usually from 38.3 µM), for the others: at the top dose reporter change, positive = more light; active = well fitted rising curve with a large enough effect; inconclusive = small, poorly fitted or top-dose-only effect; inactive = no such curve, though single readings can be large or run the other way;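 also: % of control where 0% means no effect; miR-21 action dims this reporter so a rising signal means less miR-21 action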
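HeLa cells stably expressing CMV-driven firefly luciferase with a downstream miR-21 binding sequence, endogenously expressing miR-21, were treated with titrations (up to about 40uM final) for 48 hours at 37 degree Celsius. Luciferase luminescence was read after lysis.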
A549 tox: counter-screen for Nrf2 inhibitors: cytotoxicity in A549 cells | A549 ARE-Fluc cells, CellTiter-Fluor viability, 18-24 h | Potency, µM (highest dose often 46 µM), without a hit: top-dose activity change, negative = cytotoxicity, actives largely listed as inhibitors | 0.16% of 390,000 active; further: potency means the concentration at half of the fitted maximal effect; on the % scale 0 is the no-effect control and ±100 the full control effect
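Cytotoxicity counterscreen: CellTiter-Fluor fluorescence was measured in A549 ARE_Fluc cells after 18-24 h of compound exposure in a concentration series. The subsequent BugLite luminescent read reports ARE-luciferase activity.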
An asterisk follows results filed as active; ? = inconclusive; . = no result. Unless noted, the call rests on the fitted dose curve; in most records, active means well fitted curve in the direction sought with a large enough effect; inconclusive means small, poorly fitted or top-dose-only effect, or another doubt; inactive means no such curve, though single readings can be large; an effect the other way counts as inactive or inconclusive.

Codes – A = ClpP mod; B = IL2 activator; C = Nrf2 block; D = Nrf2 activator; E = miR-21 reporter; F = A549 tox
[1] O=[N+]([O-])c1cc(S(=O)(=O)Nc2ccccc2)ccc1N1CCN(c2ccccc2)CC1
  A = -27% | B = -1 | C = 18µM* | D = 5% | E = 17% | F = ?
[2] O=C(Nc1cccc(Cl)c1)c1cc2c(=O)[nH]c3ccccc3c2s1
  A = -21% | B = . | C = ? | D = 13% | E = -25% | F = -1%
[3] CCOC(=O)C1=C(CCl)NC(=O)NC1c1ccc2c(c1)OCO2 (stereo not drawn)
  A = . | B = -1 | C = 15µM* | D = 21% | E = 16% | F = -18%
[4] CC1=C(C(=O)OCc2ccc3c(c2)OCO3)C(c2ccc(Cl)cc2)NC(=O)N1 (stereo not drawn)
  A = 0% | B = -2 | C = 7.3µM* | D = 0% | E = ? | F = ?
[5] COc1ccccc1CNC(=O)CCC(=O)N1Cc2ccccc2Oc2ncccc21
  A = 1% | B = . | C = . | D = -1% | E = -1% | F = 4%
[6] CN(CCCNC(=O)c1cc2c(=O)n(C)c3ccccc3c2s1)Cc1ccccc1
  A = 5% | B = . | C = -6% | D = 9% | E = -6% | F = -14%
[7] O=C(C1COc2ccccc2O1)N1CCN(c2ccccc2)CC1 (stereo not drawn)
  A = -3% | B = 0 | C = 8% | D = 0% | E = -13% | F = -17%
[8] O=C(C1COc2ccccc2O1)N1CCOCC1 (stereo not drawn)
  A = 16µM* | B = 2 | C = -6% | D = 1% | E = -2% | F = -1%
[9] COc1ccccc1C(=O)NC(=O)CSc1nc(C)cs1
  A = 28µM* | B = -1 | C = -1% | D = 3% | E = . | F = 0%
[10] CSc1ccc(CCNC(=O)C2CCCN(S(=O)(=O)N(C)c3ccc(F)cc3)C2)cc1 (stereo not drawn)
  A = -2% | B = . | C = ? | D = -1% | E = ? | F = -6%
[11] Cc1nc2c(nc1C)C(=O)c1ccccc1C2=O
  A = 0% | B = -2 | C = 16µM* | D = -3% | E = . | F = ?
[12] CCn1c(SCC(=O)N(C)CC(=O)Nc2cccc(OC)c2)nnc1-c1ccco1
  A = 28µM* | B = -3 | C = 13% | D = 8% | E = . | F = 10%
[13] CCn1c(SCC(=O)Nc2cccc(OC)c2)nnc1-c1ccc(Cl)cc1
  A = 0% | B = -2 | C = 26µM* | D = 0% | E = 8% | F = -12%
[14] CCn1c(SCCC(=O)Nc2ccccc2)nnc1-c1ccc(OC)cc1
  A = -5% | B = -5 | C = -6% | D = -1% | E = -5% | F = -7%
[15] Cc1nnc(SCC(=O)NCC2CCCO2)n1-c1ccccc1 (stereo not drawn)
  A = 0% | B = -2 | C = 5% | D = 0% | E = 1% | F = 0%
[16] O=C(CSc1nnc(-c2ccco2)n1-c1ccccc1)NCC1CCCO1 (stereo not drawn)
  A = 32µM* | B = -2 | C = 15% | D = 0% | E = -4% | F = 0%
[17] COc1cccc(-n2c(SCC(N)=O)nnc2-c2ccco2)c1
  A = 32µM* | B = -1 | C = -5% | D = -1% | E = -1% | F = -1%
[18] O=C(NCCc1nc2ccccc2n1CCO)C1CCCCC1
  A = . | B = . | C = -6% | D = . | E = . | F = -1%
[19] CSc1ccccc1OCc1cc(C(=O)NC(C)CCn2cccn2)no1 (stereo not drawn)
  A = -4% | B = -3 | C = -27% | D = -1% | E = -5% | F = 0%
[20] CSc1ccccc1OCc1cc(C(=O)NC(C)c2cnn(C)c2)no1 (stereo not drawn)
  A = 28µM* | B = -3 | C = ? | D = 3% | E = -13% | F = 11%
[21] C[n+]1c2n(c3ccccc31)N=C(c1ccc(Br)cc1)CS2
  A = 2% | B = -3 | C = ? | D = ? | E = 25% | F = -14%
[22] C[n+]1c2n(c3ccccc31)N=C(c1ccc(-c3ccccc3)cc1)CS2
  A = -1% | B = -4 | C = 10µM* | D = -1% | E = ? | F = ?
[23] CSc1ccc(/C=N/NC(=O)CNc2cccc3ccccc23)cc1
  A = . | B = 0 | C = -18% | D = 3% | E = -7% | F = -4%
[24] CSc1ccc(CNc2cccc3ccccc23)cc1
  A = 28µM* | B = 0 | C = ? | D = 0% | E = 8% | F = 0%
[25] Cc1ccc(Cl)cc1NC(c1ccc(F)cc1)c1nnc(-c2ccccc2)o1 (stereo not drawn)
  A = -3% | B = . | C = -23% | D = 11% | E = 0% | F = 13%
[26] CCOc1ccc(S(=O)(=O)Nc2cc(Cl)ccc2OC)c2cccnc12
  A = -2% | B = . | C = ? | D = 9% | E = 23% | F = -19%

Of the compounds above, these contain two or more sulfur atoms.
Codes – A = ClpP mod; B = IL2 activator; C = Nrf2 block; D = Nrf2 activator; E = miR-21 reporter; F = A549 tox
[9] COc1ccccc1C(=O)NC(=O)CSc1nc(C)cs1
  A = 28µM* | B = -1 | C = -1% | D = 3% | E = . | F = 0%
[10] CSc1ccc(CCNC(=O)C2CCCN(S(=O)(=O)N(C)c3ccc(F)cc3)C2)cc1 (stereo not drawn)
  A = -2% | B = . | C = ? | D = -1% | E = ? | F = -6%
